# Laboratory results reported in ChEMBL document CHEMBL5723584 (2023).
# Protein sequences, listed by entry. Tags and fused reporters are not part of them. Lines headed by an entry give the natural chain unless they say otherwise; changes in a name come on top.
# UniProt Q9HBH9: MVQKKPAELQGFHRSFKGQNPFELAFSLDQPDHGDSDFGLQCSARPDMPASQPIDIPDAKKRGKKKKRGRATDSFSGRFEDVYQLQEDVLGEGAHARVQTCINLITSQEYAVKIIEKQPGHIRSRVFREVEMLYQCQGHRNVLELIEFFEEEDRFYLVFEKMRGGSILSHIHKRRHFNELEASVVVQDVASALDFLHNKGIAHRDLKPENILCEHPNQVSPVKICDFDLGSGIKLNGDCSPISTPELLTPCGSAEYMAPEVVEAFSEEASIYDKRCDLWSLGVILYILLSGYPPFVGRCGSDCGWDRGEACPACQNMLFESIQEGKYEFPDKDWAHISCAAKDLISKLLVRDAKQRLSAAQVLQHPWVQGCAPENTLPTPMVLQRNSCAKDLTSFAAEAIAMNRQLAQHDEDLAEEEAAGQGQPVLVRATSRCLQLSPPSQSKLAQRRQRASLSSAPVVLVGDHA
# UniProt Q2M2I8: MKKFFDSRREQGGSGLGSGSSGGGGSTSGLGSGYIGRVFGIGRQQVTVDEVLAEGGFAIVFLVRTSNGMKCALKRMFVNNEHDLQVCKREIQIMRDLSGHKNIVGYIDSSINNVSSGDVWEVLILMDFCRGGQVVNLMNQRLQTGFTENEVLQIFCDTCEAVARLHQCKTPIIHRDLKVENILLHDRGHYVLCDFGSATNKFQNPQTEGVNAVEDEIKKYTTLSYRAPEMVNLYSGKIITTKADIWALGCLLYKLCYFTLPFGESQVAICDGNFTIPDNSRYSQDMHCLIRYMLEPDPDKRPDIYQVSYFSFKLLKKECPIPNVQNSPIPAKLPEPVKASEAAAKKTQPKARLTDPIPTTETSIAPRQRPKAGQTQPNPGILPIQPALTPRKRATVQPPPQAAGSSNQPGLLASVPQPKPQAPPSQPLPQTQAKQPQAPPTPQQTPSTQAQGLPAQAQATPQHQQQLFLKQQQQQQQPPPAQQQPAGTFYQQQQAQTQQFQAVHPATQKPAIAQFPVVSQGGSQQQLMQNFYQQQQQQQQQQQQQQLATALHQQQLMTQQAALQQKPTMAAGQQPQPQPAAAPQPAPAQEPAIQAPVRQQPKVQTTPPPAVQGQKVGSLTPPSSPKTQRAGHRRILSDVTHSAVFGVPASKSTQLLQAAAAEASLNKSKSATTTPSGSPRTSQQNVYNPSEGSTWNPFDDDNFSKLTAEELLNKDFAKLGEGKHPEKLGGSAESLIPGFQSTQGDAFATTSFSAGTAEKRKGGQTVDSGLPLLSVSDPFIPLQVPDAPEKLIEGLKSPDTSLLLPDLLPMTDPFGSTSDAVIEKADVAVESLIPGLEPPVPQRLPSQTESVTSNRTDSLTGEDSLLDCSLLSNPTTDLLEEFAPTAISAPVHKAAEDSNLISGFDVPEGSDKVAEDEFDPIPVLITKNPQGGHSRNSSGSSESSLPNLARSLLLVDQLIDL
# UniProt O14578, whole entry: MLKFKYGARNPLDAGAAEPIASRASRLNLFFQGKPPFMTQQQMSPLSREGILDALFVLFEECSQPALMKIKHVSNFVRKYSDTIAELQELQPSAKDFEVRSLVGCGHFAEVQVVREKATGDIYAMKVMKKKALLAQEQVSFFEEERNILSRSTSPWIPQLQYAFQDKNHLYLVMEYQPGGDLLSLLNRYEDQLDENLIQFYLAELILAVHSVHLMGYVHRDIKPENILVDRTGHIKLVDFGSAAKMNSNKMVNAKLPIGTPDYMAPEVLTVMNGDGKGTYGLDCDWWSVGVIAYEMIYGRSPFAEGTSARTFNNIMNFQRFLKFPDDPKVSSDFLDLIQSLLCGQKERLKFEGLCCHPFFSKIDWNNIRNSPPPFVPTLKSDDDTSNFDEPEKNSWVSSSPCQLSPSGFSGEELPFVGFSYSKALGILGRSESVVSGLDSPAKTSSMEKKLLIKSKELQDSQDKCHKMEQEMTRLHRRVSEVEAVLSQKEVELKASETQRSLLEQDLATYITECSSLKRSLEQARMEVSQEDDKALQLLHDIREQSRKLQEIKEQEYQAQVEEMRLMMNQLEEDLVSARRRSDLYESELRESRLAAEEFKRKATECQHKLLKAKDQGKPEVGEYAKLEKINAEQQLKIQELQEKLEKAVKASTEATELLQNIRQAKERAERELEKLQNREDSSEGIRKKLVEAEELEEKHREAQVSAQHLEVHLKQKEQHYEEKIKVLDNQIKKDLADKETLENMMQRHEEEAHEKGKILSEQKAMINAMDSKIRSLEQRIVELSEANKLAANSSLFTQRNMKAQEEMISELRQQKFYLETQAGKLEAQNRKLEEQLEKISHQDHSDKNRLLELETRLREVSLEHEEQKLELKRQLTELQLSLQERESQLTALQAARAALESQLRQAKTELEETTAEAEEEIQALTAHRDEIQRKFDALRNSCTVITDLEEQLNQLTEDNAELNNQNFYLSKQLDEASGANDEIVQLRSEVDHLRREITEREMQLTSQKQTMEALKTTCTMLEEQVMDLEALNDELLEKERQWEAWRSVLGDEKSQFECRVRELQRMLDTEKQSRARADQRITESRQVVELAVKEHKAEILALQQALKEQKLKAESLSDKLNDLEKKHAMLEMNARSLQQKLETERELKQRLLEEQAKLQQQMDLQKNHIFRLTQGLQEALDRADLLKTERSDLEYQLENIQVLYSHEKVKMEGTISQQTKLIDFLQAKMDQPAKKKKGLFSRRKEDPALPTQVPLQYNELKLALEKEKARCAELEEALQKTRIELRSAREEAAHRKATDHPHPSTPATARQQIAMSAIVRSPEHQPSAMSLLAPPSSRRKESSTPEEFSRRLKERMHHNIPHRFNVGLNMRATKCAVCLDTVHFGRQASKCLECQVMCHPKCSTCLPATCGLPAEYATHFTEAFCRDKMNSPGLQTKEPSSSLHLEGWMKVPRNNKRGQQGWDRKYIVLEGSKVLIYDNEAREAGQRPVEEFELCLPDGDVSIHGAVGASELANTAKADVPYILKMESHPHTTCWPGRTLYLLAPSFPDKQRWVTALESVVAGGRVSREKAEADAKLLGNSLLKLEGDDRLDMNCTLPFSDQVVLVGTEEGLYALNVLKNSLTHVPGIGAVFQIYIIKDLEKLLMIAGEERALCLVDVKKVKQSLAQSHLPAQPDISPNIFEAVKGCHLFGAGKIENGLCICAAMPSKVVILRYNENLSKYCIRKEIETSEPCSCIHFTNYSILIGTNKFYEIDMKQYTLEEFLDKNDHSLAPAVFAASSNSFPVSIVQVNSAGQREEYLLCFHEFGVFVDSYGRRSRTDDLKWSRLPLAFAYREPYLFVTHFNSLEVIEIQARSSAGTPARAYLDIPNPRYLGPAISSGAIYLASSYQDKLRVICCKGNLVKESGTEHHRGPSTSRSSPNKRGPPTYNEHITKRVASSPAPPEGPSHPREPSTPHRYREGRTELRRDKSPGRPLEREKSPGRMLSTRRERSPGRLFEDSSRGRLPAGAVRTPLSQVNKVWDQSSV
# UniProt Q9NSY1, whole entry, looked up: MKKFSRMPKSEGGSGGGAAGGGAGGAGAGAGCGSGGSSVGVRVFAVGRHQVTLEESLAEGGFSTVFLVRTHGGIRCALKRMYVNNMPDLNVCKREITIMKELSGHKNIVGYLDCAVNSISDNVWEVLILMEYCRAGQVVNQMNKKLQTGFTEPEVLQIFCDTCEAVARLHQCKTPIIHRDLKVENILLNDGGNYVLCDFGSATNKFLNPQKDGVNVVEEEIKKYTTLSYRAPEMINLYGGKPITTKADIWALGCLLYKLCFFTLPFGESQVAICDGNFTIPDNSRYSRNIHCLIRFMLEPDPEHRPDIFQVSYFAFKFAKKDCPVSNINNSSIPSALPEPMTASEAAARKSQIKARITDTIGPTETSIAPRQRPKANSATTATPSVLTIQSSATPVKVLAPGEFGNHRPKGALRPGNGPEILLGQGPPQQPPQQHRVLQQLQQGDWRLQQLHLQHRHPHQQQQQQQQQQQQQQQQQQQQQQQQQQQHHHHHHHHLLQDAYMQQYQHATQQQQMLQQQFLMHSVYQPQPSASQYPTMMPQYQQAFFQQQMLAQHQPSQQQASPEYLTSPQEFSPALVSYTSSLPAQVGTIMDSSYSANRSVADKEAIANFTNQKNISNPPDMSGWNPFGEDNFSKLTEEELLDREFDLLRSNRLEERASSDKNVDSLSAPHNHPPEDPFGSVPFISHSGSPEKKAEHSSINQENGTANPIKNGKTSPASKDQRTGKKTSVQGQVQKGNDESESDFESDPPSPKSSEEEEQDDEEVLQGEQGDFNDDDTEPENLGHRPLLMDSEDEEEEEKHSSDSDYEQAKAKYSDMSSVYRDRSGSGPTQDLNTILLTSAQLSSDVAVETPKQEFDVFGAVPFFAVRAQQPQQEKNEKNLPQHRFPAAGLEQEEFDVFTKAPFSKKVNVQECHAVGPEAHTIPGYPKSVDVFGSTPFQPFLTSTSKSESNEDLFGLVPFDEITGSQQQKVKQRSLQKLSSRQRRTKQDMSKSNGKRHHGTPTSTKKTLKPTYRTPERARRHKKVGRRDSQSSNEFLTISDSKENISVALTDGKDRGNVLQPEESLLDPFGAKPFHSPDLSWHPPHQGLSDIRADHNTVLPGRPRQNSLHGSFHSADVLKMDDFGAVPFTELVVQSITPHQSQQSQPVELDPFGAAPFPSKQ
# How the values were obtained:
# Settings in all cases: Compound concentration 1.0 uM
# [1] = target: MAP kinase-interacting serine/threonine-protein kinase 2 (Homo sapiens, UniProt Q9HBH9); assay: activity of Mnk2(h) at 1.0 µM in the Eurofins Kinase panel
# [2] = target: AP2-associated protein kinase 1 (Homo sapiens, UniProt Q2M2I8); assay: activity of AAK1(h) at 1.0 µM in the Eurofins Kinase panel
# [3] = target: Citron Rho-interacting kinase (Homo sapiens, UniProt O14578); assay: activity of CRIK(h) aka CITK at 1.0 µM in the Eurofins Kinase panel
# [4] = target: BMP-2-inducible protein kinase (Homo sapiens, UniProt Q9NSY1); assay: activity of BIKE(h) at 1.0 µM in the Eurofins Kinase panel
# [5] = target: T1, Homeodomain-interacting protein kinase 4 (Homo sapiens) (UniProt Q8NE63); assay: activity of HIPK4(h) at 1.0 µM in the Eurofins Kinase panel
# T1 sequence (whole entry): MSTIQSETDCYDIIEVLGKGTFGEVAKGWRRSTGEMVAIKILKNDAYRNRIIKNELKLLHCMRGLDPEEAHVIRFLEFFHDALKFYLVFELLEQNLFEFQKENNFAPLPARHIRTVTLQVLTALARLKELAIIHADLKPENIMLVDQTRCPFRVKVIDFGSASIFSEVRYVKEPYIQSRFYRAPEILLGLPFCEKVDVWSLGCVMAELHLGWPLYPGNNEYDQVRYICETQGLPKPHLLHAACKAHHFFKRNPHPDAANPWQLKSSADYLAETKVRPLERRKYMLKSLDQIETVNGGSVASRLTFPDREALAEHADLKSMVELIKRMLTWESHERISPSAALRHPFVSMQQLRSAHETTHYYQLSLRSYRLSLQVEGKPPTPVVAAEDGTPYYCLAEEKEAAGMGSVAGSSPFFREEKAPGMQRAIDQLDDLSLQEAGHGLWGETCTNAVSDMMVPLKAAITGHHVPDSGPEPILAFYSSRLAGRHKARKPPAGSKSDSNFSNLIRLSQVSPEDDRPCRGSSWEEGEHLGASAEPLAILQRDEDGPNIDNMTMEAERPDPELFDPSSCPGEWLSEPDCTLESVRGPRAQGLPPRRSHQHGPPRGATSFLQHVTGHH
compound,measurement,setting,value
Cc1cc2c(-c3ccc(NC(=O)[C@H](N)CC(C)(C)C)cc3C)ccnc2[nH]1,activity,[1],35%
same,activity,[2],13%
same,activity,[3],0%
same,activity,[4],50%
same,activity,[5],52%
